# Measured values published in PMC3762585 (Chemical & pharmaceutical bulletin, 2012).
substance,measurement,setting,value
27-deoxy-7β-hydroxy-withaferin A [Withalongolide O 1],IC50,B16F10,1820 ± 210 nM
same,IC50,SKMEL-28,330 ± 60 nM
same,IC50,JMAR,3200 ± 620 nM
same,IC50,MRC-5,1300 ± 110 nM
